The target of test [1] is Acetylcholinesterase (Electrophorus electricus, UniProt O42275). The test is described as follows: In Vitro AChE/BChE Inhibition Assay. Conditions: pH 7.4.
Test [2] has as its target Carboxylic ester hydrolase (Equus caballus, UniProt Q9N1N9). The test is described as follows: In Vitro AChE/BChE Inhibition Assay. To be noted: pH 7.4.

pIC50: −log10 of the molar value.

This note sets out measurements from BindingDB's records for 28501648.

Consider `O=C(NCCCCNc1c2c(nc3ccccc13)CCCC2)c1ccccc1F`, for which the pIC50 (commonly the IC50 on a negative log10 scale, so that one unit is a factor of ten) was 7.38 in test [1] and 8.86 in test [2].
Turning to `O=C(NCCNc1c2c(nc3ccccc13)CCCC2)c1cccc(F)c1`, the values for the negative logarithm of the IC50 (pIC50) in test [1] and in test [2] were 5.79 and 8.32, respectively.
For `O=C(NCCCCNc1c2c(nc3ccccc13)CCCC2)c1cccc(F)c1`, in that order: 7.01 and 8.99.
